pKi: −log10 of the molar value.
Molecular target: KOR (Homo sapiens, UniProt P41145)
Assay: Radioligand competition binding, [^3H]U69,593

Compound `CC[C@H](C)[C@H](NC(=O)[C@H](CCCNC(=N)N)NC(=O)[C@H](CC(C)C)NC(=O)[C@H](Cc1ccccc1)NC(=O)CNC(=O)CNC(=O)[C@@H](N)Cc1ccc(O)cc1)C(=O)N[C@@H](CCCNC(=N)N)C(N)=O` [compound 13] has a pKi of 9.66.

Source: article PMC5693303 (Journal of medicinal chemistry, 2016)
